2 compounds from ChEMBL document CHEMBL2321744 (J Med Chem, 2013) can be followed below.

By UniProt entry, the sequences of proteins in these tests, tags left out. Where a name states a change or a piece, a line headed by the entry shows the natural chain unless it says otherwise.
UniProt P08684, whole entry: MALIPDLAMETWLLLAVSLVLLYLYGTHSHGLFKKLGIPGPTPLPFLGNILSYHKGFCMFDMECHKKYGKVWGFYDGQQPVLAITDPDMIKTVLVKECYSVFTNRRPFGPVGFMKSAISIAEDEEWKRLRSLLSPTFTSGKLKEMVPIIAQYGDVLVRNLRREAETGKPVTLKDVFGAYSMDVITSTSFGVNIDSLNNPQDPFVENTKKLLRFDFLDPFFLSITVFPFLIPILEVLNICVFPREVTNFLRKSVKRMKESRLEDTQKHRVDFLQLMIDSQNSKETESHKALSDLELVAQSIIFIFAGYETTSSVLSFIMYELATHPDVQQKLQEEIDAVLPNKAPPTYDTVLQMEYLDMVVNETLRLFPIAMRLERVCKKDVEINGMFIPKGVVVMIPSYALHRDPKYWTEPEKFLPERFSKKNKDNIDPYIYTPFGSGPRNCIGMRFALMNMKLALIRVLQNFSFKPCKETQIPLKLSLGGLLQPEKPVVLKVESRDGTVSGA
UniProt P11712, whole entry: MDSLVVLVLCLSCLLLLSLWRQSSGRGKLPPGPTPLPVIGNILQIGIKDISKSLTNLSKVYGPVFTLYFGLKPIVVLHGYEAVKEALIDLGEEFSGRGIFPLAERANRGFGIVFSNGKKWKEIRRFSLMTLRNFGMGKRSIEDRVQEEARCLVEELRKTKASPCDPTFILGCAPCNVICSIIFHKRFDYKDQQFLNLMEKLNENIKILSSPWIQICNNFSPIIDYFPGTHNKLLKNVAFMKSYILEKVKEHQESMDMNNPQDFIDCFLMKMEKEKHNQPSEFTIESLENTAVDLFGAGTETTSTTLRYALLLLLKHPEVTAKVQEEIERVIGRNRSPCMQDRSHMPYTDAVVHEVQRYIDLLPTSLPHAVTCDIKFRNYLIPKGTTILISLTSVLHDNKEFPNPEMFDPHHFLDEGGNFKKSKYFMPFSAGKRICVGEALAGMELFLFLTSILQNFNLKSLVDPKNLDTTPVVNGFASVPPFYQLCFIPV
UniProt O14939: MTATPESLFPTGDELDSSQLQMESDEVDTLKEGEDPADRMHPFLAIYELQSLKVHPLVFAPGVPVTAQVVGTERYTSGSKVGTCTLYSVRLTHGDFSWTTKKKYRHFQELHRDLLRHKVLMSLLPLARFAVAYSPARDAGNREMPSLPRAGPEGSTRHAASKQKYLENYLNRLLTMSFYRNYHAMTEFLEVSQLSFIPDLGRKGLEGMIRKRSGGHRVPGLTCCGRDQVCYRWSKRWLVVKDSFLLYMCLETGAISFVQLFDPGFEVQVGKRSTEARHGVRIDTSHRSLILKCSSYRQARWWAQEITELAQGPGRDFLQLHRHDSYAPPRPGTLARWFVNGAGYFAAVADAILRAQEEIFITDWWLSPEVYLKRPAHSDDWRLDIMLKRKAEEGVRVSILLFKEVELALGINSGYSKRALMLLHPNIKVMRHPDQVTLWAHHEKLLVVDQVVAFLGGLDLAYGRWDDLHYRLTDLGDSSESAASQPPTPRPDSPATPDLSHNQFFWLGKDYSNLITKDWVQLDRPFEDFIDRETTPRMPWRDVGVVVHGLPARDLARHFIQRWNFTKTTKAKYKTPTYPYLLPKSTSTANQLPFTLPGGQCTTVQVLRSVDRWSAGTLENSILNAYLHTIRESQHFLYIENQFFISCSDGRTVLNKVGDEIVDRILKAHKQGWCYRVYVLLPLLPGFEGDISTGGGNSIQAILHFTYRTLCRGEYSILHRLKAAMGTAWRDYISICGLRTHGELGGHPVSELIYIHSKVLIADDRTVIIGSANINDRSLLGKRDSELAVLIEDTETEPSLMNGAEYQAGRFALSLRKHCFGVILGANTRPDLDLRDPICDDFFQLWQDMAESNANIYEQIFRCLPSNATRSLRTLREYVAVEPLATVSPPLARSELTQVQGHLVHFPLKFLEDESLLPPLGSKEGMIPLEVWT
UniProt Q12809: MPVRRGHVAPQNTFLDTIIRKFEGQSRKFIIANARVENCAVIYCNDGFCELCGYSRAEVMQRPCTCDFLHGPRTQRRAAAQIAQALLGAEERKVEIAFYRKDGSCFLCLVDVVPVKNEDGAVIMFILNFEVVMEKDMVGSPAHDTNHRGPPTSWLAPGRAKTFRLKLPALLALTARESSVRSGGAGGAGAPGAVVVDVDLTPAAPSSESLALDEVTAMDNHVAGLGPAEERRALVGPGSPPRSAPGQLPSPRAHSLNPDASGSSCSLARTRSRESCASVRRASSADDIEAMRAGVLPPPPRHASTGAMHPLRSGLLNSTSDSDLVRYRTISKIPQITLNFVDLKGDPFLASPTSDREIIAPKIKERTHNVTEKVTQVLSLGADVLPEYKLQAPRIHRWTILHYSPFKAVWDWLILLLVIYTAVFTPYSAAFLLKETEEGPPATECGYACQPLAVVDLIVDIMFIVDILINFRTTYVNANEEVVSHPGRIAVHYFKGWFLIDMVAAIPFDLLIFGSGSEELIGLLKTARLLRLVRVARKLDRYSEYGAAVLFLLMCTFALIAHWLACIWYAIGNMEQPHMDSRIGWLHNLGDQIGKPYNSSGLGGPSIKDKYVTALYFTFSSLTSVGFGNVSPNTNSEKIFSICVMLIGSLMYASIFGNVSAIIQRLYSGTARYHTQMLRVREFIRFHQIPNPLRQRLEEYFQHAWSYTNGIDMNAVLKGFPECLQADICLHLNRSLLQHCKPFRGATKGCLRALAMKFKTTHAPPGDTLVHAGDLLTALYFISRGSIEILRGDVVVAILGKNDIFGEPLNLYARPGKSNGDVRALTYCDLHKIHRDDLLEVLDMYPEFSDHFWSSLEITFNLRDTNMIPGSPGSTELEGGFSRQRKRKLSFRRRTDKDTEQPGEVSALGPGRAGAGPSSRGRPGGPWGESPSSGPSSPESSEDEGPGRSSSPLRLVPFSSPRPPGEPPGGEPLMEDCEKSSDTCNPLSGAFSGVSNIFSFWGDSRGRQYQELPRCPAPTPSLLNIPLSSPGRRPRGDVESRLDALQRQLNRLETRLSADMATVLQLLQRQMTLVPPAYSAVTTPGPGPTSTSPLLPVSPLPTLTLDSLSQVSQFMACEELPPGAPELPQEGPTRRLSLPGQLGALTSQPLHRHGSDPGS

For test [1], the target named is T1, Phospholipase D1 (Homo sapiens) (UniProt Q13393).
T1 sequence (whole entry): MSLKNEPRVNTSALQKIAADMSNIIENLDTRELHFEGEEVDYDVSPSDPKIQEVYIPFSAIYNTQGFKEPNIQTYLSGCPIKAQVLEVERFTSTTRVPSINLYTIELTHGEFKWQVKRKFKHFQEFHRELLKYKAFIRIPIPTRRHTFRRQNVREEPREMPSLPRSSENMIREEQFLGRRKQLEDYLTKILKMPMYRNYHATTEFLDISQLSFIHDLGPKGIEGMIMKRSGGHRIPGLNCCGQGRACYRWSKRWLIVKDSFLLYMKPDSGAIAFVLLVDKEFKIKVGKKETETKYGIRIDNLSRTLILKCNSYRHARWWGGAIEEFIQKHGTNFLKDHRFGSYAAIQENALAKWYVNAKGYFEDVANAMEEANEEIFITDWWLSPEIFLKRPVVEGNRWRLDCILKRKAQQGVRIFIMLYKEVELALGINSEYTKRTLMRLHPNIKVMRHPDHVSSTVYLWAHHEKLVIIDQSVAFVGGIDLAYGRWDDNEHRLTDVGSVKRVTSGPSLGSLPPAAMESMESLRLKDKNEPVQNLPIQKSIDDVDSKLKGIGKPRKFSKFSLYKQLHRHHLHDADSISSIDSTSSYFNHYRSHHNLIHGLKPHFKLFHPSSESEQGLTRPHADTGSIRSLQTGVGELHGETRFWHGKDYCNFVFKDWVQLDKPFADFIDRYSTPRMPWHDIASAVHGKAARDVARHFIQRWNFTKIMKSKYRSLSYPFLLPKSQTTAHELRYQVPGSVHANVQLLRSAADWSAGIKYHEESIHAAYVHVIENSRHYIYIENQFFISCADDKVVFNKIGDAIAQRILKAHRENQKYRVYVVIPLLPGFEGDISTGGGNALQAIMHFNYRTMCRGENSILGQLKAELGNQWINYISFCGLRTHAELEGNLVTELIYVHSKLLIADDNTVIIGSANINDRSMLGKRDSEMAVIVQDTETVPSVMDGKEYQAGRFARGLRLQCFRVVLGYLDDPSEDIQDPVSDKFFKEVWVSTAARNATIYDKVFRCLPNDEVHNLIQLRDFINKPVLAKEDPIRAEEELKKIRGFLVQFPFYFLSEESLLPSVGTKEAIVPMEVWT
The settings on record: Calu-1, 20 uM.

A further test deals with Cytochrome P450 3A4 (Homo sapiens, UniProt P08684).
The target in another test is Cytochrome P450 2C9 (Homo sapiens, UniProt P11712).
In test [2] the target is T2, Phospholipase D1 (Homo sapiens, UniProt Q13393).
T2 sequence (Q13393 whole entry): T1 sequence (whole entry)

Test [3] concerns the target T2, Phospholipase D1. Kind of test: Inhibition of PLD1 in human Calu-1 cells assessed as deuterated 1-butanol incorporation pretreated for 5 mins prior to substrate addition measured after 30 mins by mass spectrometry.
In test [4] the target is T3, Phospholipase D2 (Homo sapiens, UniProt O14939). Conditions: U-87MG ATCC.
For test [5], the target named is T3, Phospholipase D2.
For test [6], the target named is T3, Phospholipase D2. Kind of test: Inhibition of GFP-tagged PLD2 in human HEK293 cells assessed as deuterated 1-butanol incorporation pretreated for 5 mins prior to substrate addition measured after 30 mins by mass spectrometry.
Test [7] addresses Voltage-gated inwardly rectifying potassium channel KCNH2 (Homo sapiens, UniProt Q12809).
Test [8] deals with T1, Phospholipase D1 (Homo sapiens). Conditions: U-87MG ATCC.

Broadly, the pIC50 is −log10 of the IC50, conventionally taken in molar units.

pIC50: −log10 of the molar value. Active and inactive are the calls of the source. The rule behind the calls is not given here. Bounds are passed on as bounds.

For `O=C(NCCN1CCC2(CC1)C(=O)NCN2c1cccc(F)c1)c1ccc2ccccc2c1`, the inhibition entry in test [1] is “Active”.
`Cc1cccc(N2CNC(=O)C23CCN(C[C@H](C)NC(=O)c2ccc(Br)cc2)CC3)c1`: the negative-log IC50 (pIC50) at Cytochrome P450 3A4 was 5.17; on Cytochrome P450 2C9, 4.88; on Phospholipase D1 [2] it was 7.32; on Phospholipase D1 [3], 8.22; against Phospholipase D2 [5], 7.08; at Phospholipase D2 [6], 7.70. Further, in [7], the negative logarithm of the IC50 (pIC50) is below 4.70. In addition, the inhibition entry (on Phospholipase D2 [4]; in test [8]) was “Dose-dependent effect” each time.
